Laboratory results taken from patent US7144865B2, “Compositions and methods for treating obesity” (The United States of America as represented by the …, priority 2003, dated 2006).

Assay: Body weight and growth rate of G-K rats treated with zinc or zinc plus CHP (FIGS. 1, 2, 11-13)
Type: in vivo
Conditions: 10-month old G-K rats; 10 mg/L zinc with and without 1.0 mg/L CHP for 3 weeks; FIG. 1
Excerpt: I believe that CHP is effective in maintaining body weight control even after the cessation of the treatment.

Structure (SMILES): [Zn] [zinc]
- body weights compared to controls: significantly decreased
